The term pIC50 denotes the negative decadic logarithm of the IC50, by convention in mol/L.

pIC50: −log10 of the molar value.

This test concerns the target Aldo-keto reductase family 1 member B1 (Homo sapiens, UniProt P15121). Kind of test: Inhibition of human recombinant aldose reductase.

Regarding `O=C(O)Cc1nn(Cc2nc3cc(C(F)(F)F)ccc3s2)c(=O)c2ccccc12` [ZOPOLRESTAT], the pIC50 is 7.52.

The values are drawn from ChEMBL document CHEMBL1143916, “Inhibition of 3(17)alpha-hydroxysteroid dehydrogenase (AKR1C21) by aldose reductase inhibitors” (Bioorg Med Chem, 2008).
